Bioassay records as filed in PubChem.
A selection: hits, their analogues and other compounds. The true share with any hit is near 0.92%.
GALK inh: galactokinase (human) inhibition | Purified GALK, Kinase-Glo residual ATP luminescence | Potency, µM (doses to about 57.5 µM), without a hit: at the top dose activity change, negative = inhibition, usual class: inhibitors | actives 0.007% (n = 270,000); further: potency means the concentration at half of the fitted maximal effect; on the % scale 0 is the no-effect control and ±100 the full control effect
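Quantitative HTS: GALK 5 nM, ATP 35 uM, galactose 100 uM, 1 h room temperature, then luciferase-based ATP detection.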
RXFP1 antag: blocks the human relaxin receptor RXFP1 | Q9HBX9 | HEK293-RXFP1, relaxin-stimulated cAMP HTRF, 30 min; hits give low values | activity change, negative = inhibition, % at 57.5 µM | actives 0.59% (n = 350,000) | AID 1259400;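 active means activity change of -60% or lower, but not beyond a set lower limit; inconclusive means change between -60% and -40%, or beyond the set limit; inactive means change above -40%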; further: on the % scale 0 is the no-effect control and ±100 the full control effect
miR-21 reporter: miR-21 reporter, rising signal | AID 2288 | HeLa miR-21 FLuc reporter, luciferase, 48 h | 340,000 tested, under 10 active | Potency, µM (doses to about 38.3 µM), for inactives: at the top dose reporter change, positive = more light; active = well fitted rising curve with a large enough effect; inconclusive = small, poorly fitted or top-dose-only effect; inactive = no such curve, though single readings can be large or run the other way;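 note: % of control where 0% means no effect; miR-21 action dims this reporter so a rising signal means less miR-21 action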
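Luminescence from a firefly luciferase reporter carrying a miR-21 binding site downstream, stably expressed under a CMV promoter in HeLa cells that make miR-21 endogenously, reports miRNA modulation after 48 h compound exposure up to approximately 40uM final.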
PKM2 activator: activators of human pyruvate kinase M2 | P14618 | purified PKM2, Kinase-Glo ATP luminescence, activation; response scale: 0% is enzyme alone, no compound | Potency, µM (doses to about 57.5 µM), for inactives: at the highest dose activation, usual class: activators | actives 0.34% (n = 260,000); further: potency means the concentration at half of the fitted maximal effect; on the % scale 0 is the no-effect control and ±100 the full control effect; nearly all actives have a fitted effect of over 55% in size
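Kinase-Glo luminescence reports ATP generated from ADP (0.1 mM) and PEP (0.5 mM) by purified hPK-M2 after 1 h at room temperature, pH 7.2 imidazole buffer; intermediate enzyme activity allows detecting inhibitors and activators.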
RXFP1 agonist: agonists of human relaxin receptor RXFP1. Q9HBX9. HEK293T-RXFP1 cAMP TR-FRET, 30 min; response scale: percent of porcine relaxin response, buffer zero. Potency, µM (series often up to 57.5 µM), for the others: top-dose activation, hits mostly activators. actives 0.3% (n = 370,000). AID 2676; further: potency means the concentration at half of the fitted maximal effect; on the % scale 0 is the no-effect control and ±100 the full control effect; nearly all actives have a fitted effect of over 60% in size
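Agonist response is measured as cAMP accumulation in an RXFP1-transfected HEK293T line under PDE4 inhibition. Values are scaled between buffer-only and 29 nM porcine relaxin, and EC50s come from standard Hill equation fits.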
KinaseGlo FLuc: Kinase-Glo luciferase inhibition (counter-screen); AID 1379; Kinase-Glo luciferase, ATP luminescence, 8 min; actives 0.28% (n = 200,000); Potency, µM (doses to about 38.3 µM), for inactives: at the highest dose activity change, negative = inhibition, usual class: inhibitors; further: potency means the concentration at half of the fitted maximal effect; on the % scale 0 is the no-effect control and ±100 the full control effect; nearly all actives have a fitted effect of over 60% in size
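Light output from Kinase-Glo luciferase with luciferin and 10 uM ATP in 50 mM imidazole pH 7.2, KCl, MgCl2, Tween 20, BSA; compound pin-delivered, 8-min ambient incubation, then luminescence read.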
The depositor's hits bear a star; ? = inconclusive; nt = not tested or not shown; ! = a repeat was not active; [ ] = another dose, or the depositor's remark. Unless noted, the call rests on the fitted dose curve; in most records, active means well fitted curve in the direction sought with a large enough effect; inconclusive means small, poorly fitted or top-dose-only effect, or another doubt; inactive means no such curve, though single readings can be large; an effect the other way counts as inactive or inconclusive.

entry	Compound	GALK inh	RXFP1 antag	miR-21 reporter
1	CC(NC(=O)Cn1ncc(Cl)c(Cl)c1=O)C12CC3CC(CC(C3)C1)C2 (stereo not drawn)	-3%	-100*	?
2	Cc1cc(NC(=O)c2cc(-c3cccc(OCC(C)C)c3)nc3ccccc23)no1	4%	4	6%
3	CC(C)c1ccc(NC(=O)C2CSC3(C)CCC(=O)N23)cc1 (stereo not drawn)	-8%	-2	-18%
4	Cc1cc(NC(=O)C(C)C)ncc1NC(=O)c1cccc(F)c1	4%	5	-1%
5	CCCC(=O)Nc1cnc(NC(=O)c2cccc(F)c2)cc1C	6%	-3	8%
6	Cc1cc(NC(=O)c2ccccc2)ncc1NC(=O)c1ccco1	11%	-7	-29%
7	Nc1nc(-c2cccnc2)cc(-c2cc(-c3cccnc3)nc(N)n2)n1	nt	nt	nt
8	CCOC(=O)N1CCN(C(=O)c2cn(CCOC)c(=O)c3c2c2ccccc2n3C)CC1	1%	-8	-10%
9	CCc1ccc(S(=O)(=O)Nc2ccc(O)c(C(=O)O)c2)cc1	nt	nt	nt
10	CCN(CC(=O)Nc1ccccc1OC)C(=O)/C=C/c1cccs1	nt	-69*	nt
11	C[C@](O)(C(=O)Nc1ccc(S(=O)(=O)c2ccccc2)cc1)C(F)(F)F	nt	nt	nt
12	O=C(O)C1C2C=CC(O2)C1C(=O)Nc1ccc(S(=O)(=O)N2CCc3ccccc32)cc1 (stereo not drawn)	0%	3	-3%

entry	PKM2 activator	RXFP1 agonist	KinaseGlo FLuc
1	2%	0%	1%
2	-2%	0%	nt
3	0%	1%	nt
4	-6%	0%	0%
5	-31%	0%	7.1µM*
6	-57%	1%	2.2µM*
7	nt	nt	2%[7.66 µM]
8	3%	2%	-5%
9	nt	nt	-1%
10	nt	1%	nt
11	nt	nt	4%
12	?	0%	1%

(cont.)
entry	Compound	GALK inh	RXFP1 antag	miR-21 reporter
13	O=C(O)C1C2C=CC(O2)C1C(=O)Nc1ccc(S(=O)(=O)Nc2ccccc2)cc1 (stereo not drawn)	0%	21	-1%
14	COC(=O)C(Cc1csc2ccc(Cl)cc12)NC(=O)c1ccc(Cl)cc1 (stereo not drawn)	-2%	-68*	-15%
15	COC(=O)C(Cc1ccccc1)NC(=O)c1ccc(C)cc1 (stereo not drawn)	0%	2	-3%
16	CN(C)c1ccc(C(=O)Nc2ccc(-c3nc4ccccc4o3)cc2)cc1	nt	6	-23%
17	CCc1ccc2[nH]c(=O)c(CN(CCN(C)C)C(=S)NCc3ccco3)cc2c1	3%	-64*	1%
18	O=C(c1cccs1)N(Cc1ccco1)Cc1cc2ccccc2[nH]c1=O	0%	1	-1%
19	Clc1ccc2nc(-c3ccccc3)[nH]c2c1	nt	nt	nt
20	C=CCC(C)(O)c1ccc(OC)cc1 (stereo not drawn)	nt	nt	nt
21	Cc1ccc(S(=O)(=O)c2cc(O)ccc2O)cc1C	-1%	-9	0%
22	COc1ccc2[nH]c(CN3CCC(CO)(CCOc4ccccc4)CC3)c(C)c2c1	8%	-71*	23%
23	Cc1ccc2[nH]cc(CCNC(=O)c3ccco3)c2c1	7%	8	-12%
24	Cc1cc(Br)c2[nH]cc(CCNC(=O)c3ccco3)c2c1	13%	-88*	0%

entry	PKM2 activator	RXFP1 agonist	KinaseGlo FLuc
13	28µM*	1%	0%
14	1%	-1%	nt
15	8%	3%	9%
16	nt	?	nt
17	4%	-1%	2%
18	22µM*	0%	1%
19	nt	nt	11µM*
20	nt	nt	-1%
21	16µM*	1%	-1%
22	2%	-2%	0%
23	0%	-2%	nt
24	1%	-1%	nt

Taken from above:
C=CCC(C)(O)c1ccc(OC)cc1 (stereo not drawn) in KinaseGlo FLuc shows -1%
O=C(O)C1C2C=CC(O2)C1C(=O)Nc1ccc(S(=O)(=O)Nc2ccccc2)cc1 (stereo not drawn) in miR-21 reporter shows -1%
Cc1cc(Br)c2[nH]cc(CCNC(=O)c3ccco3)c2c1 in GALK inh shows 13%
CN(C)c1ccc(C(=O)Nc2ccc(-c3nc4ccccc4o3)cc2)cc1 in RXFP1 antag shows 6

(cont.)
entry	Compound	GALK inh	RXFP1 antag	miR-21 reporter
25	O=c1[nH]cnc2c1c(-c1ccccc1)cn2-c1cccc(Cl)c1	6%	-112*	-9%
26	COc1cc(-c2ccc(N=Nc3ccc4c(S(=O)(=O)O)cc(S(=O)(=O)O)c(N)c4c3O)c(OC)c2)ccc1N=Nc1ccc2c(S(=O)(=O)O)cc(S(=O)(=O)O)c(N)c2c1O	nt	nt	nt
27	Cc1ccc(CNC(=O)C2CCN(S(=O)(=O)c3c(C)noc3/C=C/N(C)C)CC2)cc1	6%	-64*	-5%
28	O=P(O)(O)OC[C@@H](O)CO	nt	3	nt
29	COc1cc2[nH]c(=S)n(CC3CCCO3)c(=O)c2cc1OC (stereo not drawn)	0%	-94*	-4%
30	O=C(Nc1ccc(F)cc1)c1ccc2c(=O)n(CC3CCCO3)c(=S)[nH]c2c1 (stereo not drawn)	13%	-68*	4%
31	COc1cc2[nH]c(=S)n(CCCN3CCOCC3)c(=O)c2cc1OC	-3%	-68*	0%
32	CCOc1cc2[nH]c(=S)n(CC3CCCO3)c(=O)c2cc1OCC (stereo not drawn)	0%	9	-2%
33	O=C(NCC1CCCO1)c1ccc2c(=O)n(CC3CCCO3)c(=S)[nH]c2c1 (stereo not drawn)	-2%	-3	0%
34	CC(C)C(OC(=O)c1cccc(S(=O)(=O)NCC(F)(F)F)c1)C(=O)NC(N)=O (stereo not drawn)	1%	0	-2%
35	CC(=O)c1ccc(NC(=O)c2nc(-c3ccc(Cl)cc3)n3c2CCCCC3)cc1	nt	-11	14%
36	Cc1cc(OCC(=O)O/N=C(\N)c2ccccc2)ccc1Br	nt	7	-48%

entry	PKM2 activator	RXFP1 agonist	KinaseGlo FLuc
25	0%[0.46 µM]	3%	nt
26	nt	nt	10µM*!
27	nt	0%	nt
28	nt	nt	nt
29	-4%	0%	1%
30	0%	4%	nt
31	5%	0%	-1%
32	-6%	5%	-2%
33	-1%	0%	-4%
34	10%	2%	3%
35	nt	3%	nt
36	-16%	1%	0%

Next compounds follow:
entry	Compound	GALK inh	RXFP1 antag	miR-21 reporter
37	Cc1cccc(CCN(C(=O)c2csnn2)C(C(=O)NC2CCCC2)c2ccco2)c1 (stereo not drawn)	-2%	-73*	4%
38	CCC(=O)Nc1ccccc1Sc1ncnc2scc(-c3ccccc3)c12	0%	-14	-5%
39	CCOC(=O)C1=C(COC(=O)/C=C/c2ccc(OC)cc2OC)NC(=O)NC1C (stereo not drawn)	nt	-3	nt
40	CC(C)CCC[C@@H](C)[C@H]1CC[C@H]2[C@@H]3CC=C4C[C@@H](O)CC[C@]4(C)[C@H]3CC[C@]12C	nt	nt	nt
41	Clc1ccc(-c2ccc(-c3nn4c(-c5ccco5)nnc4s3)o2)cc1	nt	4	nt
42	Brc1ccc(-c2nn3c(-c4ccco4)nnc3s2)o1	0%	-23	-24%
43	COc1ccc(C(=O)/C=C/C(=O)N(CC(=O)NC2CCCCC2)Cc2cccs2)c(O)c1	-3%	-25	27%
44	COCCN(CC(=O)NC1CCCCC1)C(=O)/C=C/C(=O)c1ccc(OC)cc1O	1%	?	0%

entry	PKM2 activator	RXFP1 agonist	KinaseGlo FLuc
37	nt	3%	nt
38	-4%	-1%	1%
39	nt	0%	nt
40	nt	nt	-3%[39.9 µM]
41	nt	nt	nt
42	5%	13µM*	-2%
43	13µM*	3%	0%
44	-19%	1%	-2%

Among those listed so far, two have two or more sulfur atoms.
entry	Compound	GALK inh	RXFP1 antag	miR-21 reporter
26	COc1cc(-c2ccc(N=Nc3ccc4c(S(=O)(=O)O)cc(S(=O)(=O)O)c(N)c4c3O)c(OC)c2)ccc1N=Nc1ccc2c(S(=O)(=O)O)cc(S(=O)(=O)O)c(N)c2c1O	nt	nt	nt
38	CCC(=O)Nc1ccccc1Sc1ncnc2scc(-c3ccccc3)c12	0%	-14	-5%

entry	PKM2 activator	RXFP1 agonist	KinaseGlo FLuc
26	nt	nt	10µM*!
38	-4%	-1%	1%
